Measured values from ChEMBL document CHEMBL1129447, “2-alkenyl and 2-alkyl derivatives of adenosine and adenosine-5'-N-ethyluronamide: different affinity and selectivity of E- and Z-diastereomers at A2A adenosine receptors” (J Med Chem, 1996).

Amino acid sequences for entries named in this document (tags omitted).
UniProt P30543, whole entry: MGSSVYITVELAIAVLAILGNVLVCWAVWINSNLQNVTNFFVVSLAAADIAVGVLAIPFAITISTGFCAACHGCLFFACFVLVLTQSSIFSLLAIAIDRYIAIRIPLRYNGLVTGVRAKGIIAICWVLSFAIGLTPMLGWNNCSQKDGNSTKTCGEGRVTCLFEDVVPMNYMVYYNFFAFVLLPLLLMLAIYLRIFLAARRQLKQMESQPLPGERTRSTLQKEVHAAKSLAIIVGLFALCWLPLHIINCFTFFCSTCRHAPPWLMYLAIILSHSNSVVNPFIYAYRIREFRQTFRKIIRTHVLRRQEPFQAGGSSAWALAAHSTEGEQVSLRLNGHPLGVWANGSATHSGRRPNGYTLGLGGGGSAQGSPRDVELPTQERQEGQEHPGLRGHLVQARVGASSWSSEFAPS

Tests used:
[1] = target: T1, Adenosine receptor A2a (Rattus norvegicus, UniProt P30543)
[2] = target: T1, Adenosine receptor A2a; remark: listed apart in the source

Ki [1]: 2.2 nM
EC50 [2]: 79.2 nM
Compound: CCCCC#Cc1nc(N)c2ncn([C@@H]3O[C@H](CO)[C@@H](O)[C@H]3O)c2n1
